Among the targets are IgG1-DNP-E430G (human); IgG3-DNP-E430G (human); IgG1-DNP-RGY (human); IgG2-DNP-RGY (human); IgG3-DNP-RGY (human); IgG4-DNP-RGY (human).
What all share (assay): quartz crystal microbalance

Sequences of proteins named here, by UniProt entry; tags and fusion partners are left off. Residues count along the entry.
UniProt P02745, whole entry, looked up: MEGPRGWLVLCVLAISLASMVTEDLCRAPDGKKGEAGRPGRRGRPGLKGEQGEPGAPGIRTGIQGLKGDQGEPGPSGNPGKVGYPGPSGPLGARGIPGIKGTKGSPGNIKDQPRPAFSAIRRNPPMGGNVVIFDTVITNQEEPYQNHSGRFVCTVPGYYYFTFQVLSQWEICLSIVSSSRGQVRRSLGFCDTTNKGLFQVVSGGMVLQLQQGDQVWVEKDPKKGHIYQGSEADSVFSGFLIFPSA
UniProt P02745, 23-245: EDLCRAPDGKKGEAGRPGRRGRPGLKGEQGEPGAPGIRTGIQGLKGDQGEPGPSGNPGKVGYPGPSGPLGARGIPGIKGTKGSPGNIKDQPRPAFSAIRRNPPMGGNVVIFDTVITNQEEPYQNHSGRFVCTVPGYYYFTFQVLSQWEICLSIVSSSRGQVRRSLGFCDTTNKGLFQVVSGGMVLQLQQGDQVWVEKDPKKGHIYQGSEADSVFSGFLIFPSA
C1 (C1qr2s2), UniProt P02746, whole entry, looked up: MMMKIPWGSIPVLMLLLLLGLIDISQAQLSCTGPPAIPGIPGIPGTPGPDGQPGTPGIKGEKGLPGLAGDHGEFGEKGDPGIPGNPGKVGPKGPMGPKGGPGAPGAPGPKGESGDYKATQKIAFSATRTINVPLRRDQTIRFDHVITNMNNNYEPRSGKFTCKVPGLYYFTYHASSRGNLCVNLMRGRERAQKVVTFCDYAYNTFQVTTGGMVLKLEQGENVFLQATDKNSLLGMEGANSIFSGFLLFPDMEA
C1q, UniProt P02746, 28-253: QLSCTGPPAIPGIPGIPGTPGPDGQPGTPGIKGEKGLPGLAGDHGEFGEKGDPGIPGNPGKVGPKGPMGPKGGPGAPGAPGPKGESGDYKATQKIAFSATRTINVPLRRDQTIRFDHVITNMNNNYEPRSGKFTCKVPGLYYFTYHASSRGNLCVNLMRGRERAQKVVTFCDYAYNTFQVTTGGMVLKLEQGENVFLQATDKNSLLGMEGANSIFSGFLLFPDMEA
C1 (C1qr2s2), UniProt P02747, whole entry, looked up: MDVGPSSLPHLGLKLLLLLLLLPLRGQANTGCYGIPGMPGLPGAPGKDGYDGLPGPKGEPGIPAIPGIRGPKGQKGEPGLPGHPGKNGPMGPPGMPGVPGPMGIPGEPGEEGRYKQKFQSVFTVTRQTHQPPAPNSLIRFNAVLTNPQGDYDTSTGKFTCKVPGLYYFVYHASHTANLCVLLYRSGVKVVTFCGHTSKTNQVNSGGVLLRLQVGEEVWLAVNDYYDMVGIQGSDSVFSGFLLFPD
C1q, UniProt P02747, 29-245: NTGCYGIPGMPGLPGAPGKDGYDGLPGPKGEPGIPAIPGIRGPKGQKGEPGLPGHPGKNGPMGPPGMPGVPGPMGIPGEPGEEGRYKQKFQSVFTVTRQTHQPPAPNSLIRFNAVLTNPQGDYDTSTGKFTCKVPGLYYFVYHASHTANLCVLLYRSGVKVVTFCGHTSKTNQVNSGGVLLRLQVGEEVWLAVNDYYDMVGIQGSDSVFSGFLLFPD

Regarding “C1 (C1qr2s2) (from UniProt P02745 23-245; P02746 28-253; P02747 29-245) (complex)”, the IgGs/C1 ratio (average IgGs needed to stably bind a single C1) in the assay with IgG1-DNP-E430G (human) turned out to be 8 IgGs/C1. For the same substance, the fold C1 recruitment efficiency against IgG3-DNP in the assay with IgG3-DNP-E430G (human) was 2.5 times.

The term Kd denotes the concentration at which binding is half-saturated. High values mean a looser complex, low ones a tighter complex. Consider “C1q (from UniProt P02745 23-245; P02746 28-253; P02747 29-245) (complex)”, for which the Kd was found to be 8 µM with IgG1-DNP-RGY (human), 20 µM in the assay with IgG2-DNP-RGY (human), 4.1 µM with IgG3-DNP-RGY (human) and 11.3 µM in the assay with IgG4-DNP-RGY (human).

These data come from doi:10.1101/2024.03.26.586731.
